# Assay results from PubChem BioAssay AID1434 (Sanford-Burnham Center for Chemical Genomics, 2008).
# Sequences of proteins named here, by UniProt entry; tags and fusion partners are left off.
# UniProt Q01196, whole entry, looked up: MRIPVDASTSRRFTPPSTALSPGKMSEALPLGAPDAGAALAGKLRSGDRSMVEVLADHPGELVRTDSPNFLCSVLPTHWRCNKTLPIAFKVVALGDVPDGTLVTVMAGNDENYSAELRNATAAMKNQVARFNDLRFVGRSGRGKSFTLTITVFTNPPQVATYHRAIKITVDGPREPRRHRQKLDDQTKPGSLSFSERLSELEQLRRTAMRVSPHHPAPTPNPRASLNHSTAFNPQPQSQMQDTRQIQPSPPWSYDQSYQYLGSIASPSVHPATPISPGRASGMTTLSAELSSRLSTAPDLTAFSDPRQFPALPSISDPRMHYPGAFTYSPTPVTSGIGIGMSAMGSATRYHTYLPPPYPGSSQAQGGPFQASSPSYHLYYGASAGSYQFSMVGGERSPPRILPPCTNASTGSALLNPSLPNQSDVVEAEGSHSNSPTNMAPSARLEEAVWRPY
# UniProt Q13951, whole entry, looked up: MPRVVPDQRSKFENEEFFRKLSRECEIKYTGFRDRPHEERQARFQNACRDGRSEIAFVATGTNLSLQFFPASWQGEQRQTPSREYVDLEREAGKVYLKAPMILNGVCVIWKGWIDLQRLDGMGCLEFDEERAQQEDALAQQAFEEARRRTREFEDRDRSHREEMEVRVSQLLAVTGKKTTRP
# Where “and” joins values, the source holds several entries; their conditions need not be identical. Equal values may be shown once. This is a selection; strong and weak results do not stand in their true shares. Calls of active or inactive are those of the source.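 Rule for the calls: active = mean inhibition across duplicate retests at 20 µM reaching about 50% (limit read from the data); inactive = the rest, inconclusive results apart.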
# Target: Runt-related transcription factor 1 (Homo sapiens) + Core-binding factor subunit beta (Homo sapiens) (UniProt Q01196+Q13951)
# Test: inhibitors of RUNX1 Runt–CBFb-SMMHC binding, primary screen, biochemical, FRET, Cerulean-Runt, Venus-CBFb-SMMHC, uHTS (AID 1434);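 note: 0% = DMSO wells and 100% = wells with excess untagged CBFb-SMMHC; inhibitors lower the FRET ratio by blocking Runt binding to CBFb-SMMHC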
# Settings: Cerulean-Runt/Venus-CBFb-SMMHC FRET ratio 530/480, 1 h; at 20 µM; active compounds read high
row,SMILES,inhibition
1,Cc1ccc(NP(=O)(Oc2ccccc2F)Oc2ccccc2F)nc1,inactive: 1.2%
2,CCOP(=O)(Nc1ccccc1)OCC,inactive: -0.2% and inactive: -2%
3,Cc1cc(SC(NC(=O)c2ccc(F)cc2)C(Cl)(Cl)Cl)ncn1 (stereo not drawn),inactive: 20.5%
4,O=C(O)c1ccccc1[As](=O)(O)O,inactive: -7.4%
5,CC(=O)Nc1ccc([As](=O)(O)O)cc1,inactive: 0.6%
6,O=P(Nc1nc2ccc(Cl)cc2s1)(c1ccccc1)c1ccccc1,inactive: -1.3%
7,O=[N+]([O-])c1cccc(NC2=NCC(CBr)S2)c1 (stereo not drawn),inactive: 0.4%
8,O=C(O)CNc1ccc([As](=O)(O)O)cc1,inactive: -0.3%
9,CC(C)(C)C(=O)NC(Sc1ccncn1)C(Cl)(Cl)Cl (stereo not drawn),inactive: 0.5%
10,O=[N+]([O-])c1ncn(CCn2ncnc2[N+](=O)[O-])n1,inactive: -3.9%
11,O=C(Nc1cc([As](=O)(O)O)ccc1O)c1ccccc1,inactive: 1.4%
12,CN(C)C(=O)OCCc1n(C)cc[n+]1C,inactive: 1.2%
13,CC(C)=N/N=C(\N)N[N+](=O)[O-],inactive: -5.9%
14,CC1CCN(C(=O)Oc2c(Cl)cc(Cl)c3cccnc23)CC1,inactive: 5.4%
15,C[N+]1=C2C=CC=CC=C2SC12C([N+](=O)[O-])=CC([N+](=O)[O-])=C[C-]2[N+](=O)[O-] (stereo not drawn),inactive: 17.3%
16,Nc1ccc([As](=O)(O)c2ccc(N)cc2)cc1,inactive: -6%
17,CCN(/C(=N/P(=O)(N1CCOCC1)N1CCOCC1)N1CCOCC1)c1ccc(OC)cc1,inactive: 1%
18,O=[N+]([O-])c1cccc2n[nH]nc12,inactive: -2.8%
19,CC(=O)N1C2C3N(C(C)=O)C1C1N(C(C)=O)C(C(N1C(C)=O)N3C(C)=O)N2C(C)=O,inactive: -1.4%
20,CCc1nc2c(n1)c1c(non1O)c1c2no[n+]1[O-],inactive: 1.9%
21,O=[N+]([O-])c1cc([N+](=O)[O-])c(CCNc2ccccc2)c([N+](=O)[O-])c1,inactive: -7.1%
22,Cc1ccc(NP(=O)(Oc2ccccc2)Oc2ccccc2)nc1,inactive: -1.6%
23,COc1ccc(C2=NCC(CBr)S2)cc1 (stereo not drawn),inactive: -1.2%
